According to patent US6974824B2, “Kappa opioid receptor ligands” (Research Triangle Institute, priority 2001, dated 2005):
Like-named read-outs stand apart in the source and are kept apart here.

The chains behind the UniProt entries cited, without tags or fusion partners.
UniProt P35372, whole entry: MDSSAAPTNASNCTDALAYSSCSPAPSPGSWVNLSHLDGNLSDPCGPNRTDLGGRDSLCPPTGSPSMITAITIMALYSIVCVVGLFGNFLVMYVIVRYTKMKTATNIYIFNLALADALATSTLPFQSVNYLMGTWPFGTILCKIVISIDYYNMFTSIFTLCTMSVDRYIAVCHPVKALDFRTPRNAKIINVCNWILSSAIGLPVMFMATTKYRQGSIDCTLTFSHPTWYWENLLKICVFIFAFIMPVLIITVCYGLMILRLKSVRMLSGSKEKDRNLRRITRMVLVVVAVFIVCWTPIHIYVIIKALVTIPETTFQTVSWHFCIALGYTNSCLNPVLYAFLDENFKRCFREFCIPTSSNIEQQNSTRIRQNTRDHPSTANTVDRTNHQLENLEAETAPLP
UniProt P41143, whole entry: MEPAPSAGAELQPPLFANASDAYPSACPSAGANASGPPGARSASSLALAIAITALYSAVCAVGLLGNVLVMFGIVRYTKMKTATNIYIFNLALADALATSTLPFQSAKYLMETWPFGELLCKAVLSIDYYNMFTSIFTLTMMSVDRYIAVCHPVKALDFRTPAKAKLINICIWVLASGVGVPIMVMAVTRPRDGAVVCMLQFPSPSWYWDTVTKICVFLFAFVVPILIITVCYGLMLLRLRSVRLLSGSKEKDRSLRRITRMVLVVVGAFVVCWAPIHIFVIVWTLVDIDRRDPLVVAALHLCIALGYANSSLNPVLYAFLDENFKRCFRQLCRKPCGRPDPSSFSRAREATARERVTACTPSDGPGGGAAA

Columns and labels:
mu opioid receptor = mu opioid receptor (UniProt P33535); assay: Radioligand competitive binding, [3H]DAMGO
[1] = target: cloned human mu opioid receptor (Homo sapiens, UniProt P35372); assay: Inhibition of DAMGO-stimulated [35S]GTP-γ-S binding in cloned human opioid receptors; format: biochemical; conditions: DAMGO (10 μm)-stimulated, read-out: Apparent Functional Ki (nM ± SD) μ DAMGO
[2] = target: cloned human delta opioid receptor (Homo sapiens, UniProt P41143); assay: Inhibition of SNC-80-stimulated [35S]GTP-γ-S binding in cloned human opioid receptors; format: biochemical; conditions: SNC80 (10 μM)-stimulated (footnote b), read-out: Apparent Functional Ki (nM ± SD) δ DADLE

SMILES	Ki (mu opioid receptor; read-out: K1 (nM ± SD) μ [3H]DAMGO) [nM]	Ki (mu opioid receptor; read-out: K1 (nM ± SD) μ [3H]DAMGO, listed as nor-BNI (6)) [nM]	Ki [1] [nM]	Ki [2] [nM]
Oc1ccc2c3c1O[C@H]1c4[nH]c5c(c4C[C@@]4(O)[C@@H](C2)N(CC2CC2)CC[C@]314)C[C@@]1(O)[C@H]2Cc3ccc(O)c4c3[C@@]1(CCN2CC1CC1)[C@H]5O4 [6, nor-BNI, nor-binaltorphimine, reference compound]	65.1 ± 5.6	65	–	–
CC(C)[C@@H](CN1CC[C@@](C)(c2cccc(O)c2)[C@@H](C)C1)NC(=O)[C@H]1Cc2ccc(O)cc2CN1 [Compound 14, (3R)-7-Hydroxy-N-((1S)-1-{[(3R,4R)-4-(3-hydroxyphenyl)-3,4-dimethyl-1-piperidinyl]methyl}-2-methylpropyl)-1,2,3,4-tetrahydro-3-isoquinolinecarboxamide]	–	–	3.42 ± 0.83	> 100
